{
  "source": "patent US20060111327A1",
  "about": "“Derivatives of triptolide having a high immunosuppressive effect and high water solubility, and uses thereof” (priority 2002, published 2006)",
  "system": "rat adjuvant-induced arthritis",
  "conditions": "in vivo, 0.025 mg/kg",
  "data": [
    {"smiles": "CC(C)[C@]12O[C@H]1C1O[C@]13[C@]1(O[C@H]1C[C@H]1C4=C(CC[C@@]13C)C(=O)OC4)[C@@H]2OP(=O)([O-])[O-].[Na+].[Na+]", "note": "(stereo partly drawn) [WDY7, disodium triptolide-14-β-phosphate]", "values": [
      {"measurement": "safety coefficient LD50/effective dose", "result": 32}
    ]}
  ]
}
